The values below come from patent US20240294640A1.

Broadly, the EC50 is the concentration needed to bring the measured effect to its halfway point. Read a low EC50 as a more potent agent.

In experiment [1] the target is CLDN18.2 stably expressed on CHOS-CLDN18.2 cells (UniProt P56856). Nature of the experiment: FACS. The note with it: bispecific antibody.
The target is the same in experiment [2]. Nature of the experiment: FACS. Particulars: bispecific antibody. This is another data set of the same source.

“QP3693 (AMG910, CLDN18.2/CD3 bispecific antibody molecule from Amgen, built according to US20200055932A1)”: the EC50 in experiment [1] was 122 nM; in experiment [2], 68 nM.
